In ChEMBL document CHEMBL4011609, “Discovery of novel BRD4 inhibitors by high-throughput screening, crystallography, and cell-based assays” (Bioorg Med Chem Lett, 2017):

How the values were obtained:
MV4-11 [1] = experiment: Antiproliferative activity against human MV4-11 cells after 7 days by Alamar blue assay; type: functional, cell-based
MV4-11 [2] = experiment: Antiproliferative activity against human MV4-11 cells after 3 days by Alamar blue assay; type: functional, cell-based

SMILES: CN(CCCNc1cc(=O)oc2ccccc12)C(=O)c1cccs1
- Activity (MV4-11 [1]): Dose-dependent effect
- Activity (MV4-11 [2]): Dose-dependent effect
